The results in this text go back to ChEMBL document CHEMBL5154908, “Design, Synthesis, and Biological Characterization of Inhaled p38α/β MAPK Inhibitors for the Treatment of Lung Inflammatory Diseases” (J Med Chem, 2022).

For test [1], the species on record is Homo sapiens. The test is described as follows: Selectivity index, ratio of IC50 for inhibition of recombinant human full length His-tagged p38gamma expressed in baculovirus expression system to IC50 for inhibition of human recombinant full length GST-tagged p38alpha expressed in Escherichia coli.
Test [2] is filed under the species Homo sapiens. Description: Selectivity index, ratio of IC50 for inhibition of recombinant human full length His-tagged p38delta expressed in baculovirus expression system to IC50 for inhibition of human recombinant full length GST-tagged p38alpha expressed in Escherichia coli.

As for `C[C@H]1CCCCN1c1nnc2ccc(O[C@@H]3CC[C@H](NC(=O)Nc4cc(C(C)(C)C)nn4-c4cnn(CCN(C)C)c4)c4ccccc43)cn12`, the Ratio IC50 in the test listed under Homo sapiens [1] was above 800; in the test filed under Homo sapiens [2], above 25000.
